# Experiments:
# Sequences of proteins named here, by UniProt entry; tags and fusion partners are left off. A change or cut given only in a name is not applied to a line headed by its entry. Residues count along the entry.
# UniProt Q9EP86: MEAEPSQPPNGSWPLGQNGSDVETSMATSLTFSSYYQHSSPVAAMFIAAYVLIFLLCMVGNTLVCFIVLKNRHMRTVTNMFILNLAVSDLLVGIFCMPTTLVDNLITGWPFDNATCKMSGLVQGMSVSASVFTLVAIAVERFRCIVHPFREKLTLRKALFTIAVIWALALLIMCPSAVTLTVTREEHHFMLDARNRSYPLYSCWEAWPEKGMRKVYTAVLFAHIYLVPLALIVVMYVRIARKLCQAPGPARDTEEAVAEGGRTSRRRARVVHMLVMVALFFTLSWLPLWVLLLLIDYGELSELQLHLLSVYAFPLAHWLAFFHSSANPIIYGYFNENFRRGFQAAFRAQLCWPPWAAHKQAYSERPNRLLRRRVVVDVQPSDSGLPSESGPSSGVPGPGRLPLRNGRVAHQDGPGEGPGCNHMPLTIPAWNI
# UniProt Q9Y5X5, 103-522: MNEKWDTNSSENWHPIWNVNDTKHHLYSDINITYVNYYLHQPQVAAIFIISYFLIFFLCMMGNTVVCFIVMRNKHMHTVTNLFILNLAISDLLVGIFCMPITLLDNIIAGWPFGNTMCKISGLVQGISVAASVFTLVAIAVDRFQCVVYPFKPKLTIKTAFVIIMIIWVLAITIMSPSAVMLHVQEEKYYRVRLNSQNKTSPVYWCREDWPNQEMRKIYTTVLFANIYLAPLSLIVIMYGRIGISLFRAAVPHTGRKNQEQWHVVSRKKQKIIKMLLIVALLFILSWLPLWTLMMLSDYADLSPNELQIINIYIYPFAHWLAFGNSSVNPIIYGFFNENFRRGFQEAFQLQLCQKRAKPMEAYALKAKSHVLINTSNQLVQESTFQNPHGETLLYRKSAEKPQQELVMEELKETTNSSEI
# [1] = target: T1, cloned rat NPFF1 receptor (Rattus norvegicus, UniProt Q9EP86); assay: Radioligand binding to cloned rat NPFF1 receptor, membranes of transiently transfected COS-7 cells; settings: competition of [125I]D-Tyr-NPFF binding; transiently transfected COS-7 membranes; read-out: pKi for cloned rat NPFF1 receptor binding in COS-7 cells, MEAN (converted)
# T1 construct: expressed in transfected cells; host or cells: COS-7 cells, transient; membranes
# Method: Transfected cells from culture flasks are scraped into 5 ml of 20 mM Tris-HCl, 5 mM EDTA, pH 7.5, and lysed by sonication. The cell lysates are centrifuged at 1000 rpm for 5 min. at 4° C., and the supernatant is centrifuged at 30,000× g for 20 min. at 4° C. […] Optimal membrane suspension dilutions, defined as the protein concentration required to bind less than 10% of the added radioligand, […], unlabeled compounds, and binding buffer to a final volume of 250 μl. In equilibrium saturation binding assays membrane preparations are incubated in the presence of increasing concentrations of [^3H]-labeled compound.
# Competition assay: 50 pM radioligand, 10–12 points. Binding reaction mixtures are incubated for 2 hr at 25° C., and the reaction stopped by filtration through a double layer of GF filters treated with 0.1% polyethyleneimine, using a cell harvester. Wash buffer: 50 mM Tris-HCl, 0.1% BSA. Radioactivity may be measured by scintillation counting and data are analyzed by a computerized non-linear regression program. Non-specific binding is defined as the amount of radioactivity remaining after incubation of membrane protein in the presence of 1 μM final concentration […]. Protein concentration may be measured by the Bradford method using Bio-Rad Reagent, with bovine serum albumin as a standard. […]
# NPFF2 (hNPFF2) = target: T2, NPFF2 (hNPFF2) (Homo sapiens, UniProt Q9Y5X5); assay: Voltage-clamp electrophysiology in Xenopus oocytes expressing NPFF2 (NPFF-like) and chimeric Gαq/z; type: cell-based; settings: 1 μM, oocytes with NPFF2 (NPFF-like) mRNA and Gαq/z, −80 mV
# T2 construct: BO89, was determined to be a full length clone with no point mutations; expressed in transfected cells; host or cells: Xenopus laevis oocytes injected with synthetic mRNA
# Method: Electrophysiological responses in voltage-clamped oocytes expressing NPFF2 mRNA. […] Oocytes were clamped at a holding potential of −80 mV.
# For expression of NPFF2, mRNA transcripts were generated as described for NPFF1, using PCR products from ligation reactions or linearized DNA from B089 as DNA templates. Oocytes were injected with 5–50 ng NPFF2 mRNA and incubated as previously described.
# (§1) Oocytes were harvested from Xenopus laevis and injected with mRNA transcripts as previously described (Quick and Lester, 1994; Smith et al., 1997). […] Three to eight hours prior to recording, oocytes were injected with 500 pg Gαq/z mRNA in order to observe coupling to Ca^++ activated Cl^− currents. Dual electrode voltage clamp (Axon Instruments Inc.) was performed using 3 M KCl-filled glass microelectrodes having resistances of 1–2 Mohm. Unless otherwise specified, oocytes were voltage clamped at a holding potential of −80 mV. During recordings, oocytes were bathed in continuously flowing (1–3 ml/min) medium containing 96 mM NaCl, 2 mM KCl, 1.8 mM CaCl2, 1 mM MgCl2, and 5 mM HEPES, pH 7.5 (ND96). Drugs were applied either by local perfusion from a […] glass capillary tube fixed at a distance of 0.5 mm from the oocyte, or by switching from a series of gravity fed perfusion lines.
# SNORF2 (NPFF1) = target: T3, SNORF2 (NPFF1) (Rattus norvegicus, UniProt Q9EP86); assay: Voltage-clamp electrophysiology in Xenopus oocytes expressing SNORF2 (NPFF1) and chimeric Gαq/z; type: cell-based; settings: 10 μM; oocytes with SNORF2 and Gαq/z
# T3 construct: from linearized plasmids or PCR products containing the complete coding region of the genes; expressed in transfected cells; host or cells: Xenopus laevis oocytes injected with synthetic RNA
# Method: as §1
# Heterologous expression of GPCRs in Xenopus oocytes has been widely used to determine the identity of signaling pathways activated by agonist stimulation (Gundersen et al., 1983; Takahashi et al., 1987). Activation of the phospholipase C (PLC) pathway is assayed by applying test compound in ND96 solution to oocytes previously injected with mRNA for the mammalian receptor and observing inward currents at a holding potential of −80 mV. […]
Compound,Ki [1] [nM],inward current response (NPFF2 (hNPFF2)),inward current response (SNORF2 (NPFF1)),inward current response (NPFF2 (hNPFF2); listed as PGRF-amide),inward current response (NPFF2 (hNPFF2); listed as PQRF-amide)
CSCC[C@H](NC(=O)[C@@H](N)Cc1ccccc1)C(=O)N[C@@H](CCCNC(=N)N)C(=O)N[C@@H](Cc1ccccc1)C(N)=O [FMRFa],3.3,No activity was observed,–,–,–
N=C(N)NCCC[C@H](NC(=O)[C@H](CCC(N)=O)NC(=O)[C@@H]1CCCN1)C(=O)N[C@@H](Cc1ccccc1)C(N)=O [PQRFa],6.58,–,elicited responses,smaller,activated similar inward currents

# Source: patent publication US7041461B2 (H. Lundbeck A/S, priority 1998, dated 2006)
